# Measured values published in US7266458B2, “BioMAP analysis” (Bioseek, Inc., priority 2000, dated 2007).
# How the values were obtained:
# [1] = tested on: human umbilical vein endothelial cells (HUVEC); assay: HUVEC treated with proinflammatory cytokines, readout parameters by cell-based ELISA; conditions: for ICAM-1 level: TNF-α 5 ng/ml, IFN-γ 100 ng/ml, IL-1 1 ng/ml
# Experimental: Primary human umbilical vein endothelial cells (HUVEC) are used. Other cells that may replace HUVEC in the screen include primary microvascular endothelial cells, aortic or arteriolar endothelial cells or endothelial cell lines such as EAhy926 or E6-E7 4-5-2G cells or human telomerase reverse transcriptase-expressing endothelial cells (Simmons, J. Immunol., 148:267, 1992; Rhim, Carcinogenesis 19:673, 1998; Yang, J. Biol. Chem. 274:26141, 1999). 2×10^4 cells/ml are cultured to confluence in EGM-2 (Clonetics). Other media that may replace EGM-2 include EGM (Clonetics) and Ham's F12K medium supplemented with 0.1 mg/ml heparin and 0.03-0.05 mg/ml endothelial cell growth supplement (ECGS) and 10% FBS, or medium M199 (Life Technologies, Inc.) containing 20% fetal bovine serum and 2 ng/ml basic fibroblast growth factor (Jaffe, J. Clin. Invest. 52:2745,1973; Hoshi, PNAS 81:6413,1984).
# The data provided in FIGS. 1A-1C illustrate the usefulness of the present invention in compound screening applications. […] After 24 hours, cultures are washed and evaluated for the presence of the parameters ICAM-1 (1), VCAM-1 (2), E-selectin (3), IL-8 (4), CD31 (5), HLA-DR (6) and MIG (7) by cell-based ELISA as described (Melrose, J. Immunol. 161:2457, 1998). For this, plates are blocked with 1% Blotto for 1 hr, and treated with primary antibodies (obtained from Pharmingen and Becton Dickinson) at 1 ng/ml for 2 hr. After washing, secondary peroxidase-conjugated anti-mouse IgG antibody (Promega) at 1:2500 is applied for 45 min. After washing, TMB substrate (Kierkegaard & Perry) is added and color developed. Development is stopped by addition of H2SO4 and the absorbance at 450 nm (subtracting the background absorbance at 600 nm) is read with a Molecular Dynamics plate reader. The relative expression levels of each parameter are indicated by the OD at 450 nm shown along the y-axis. The mean +/−SD from triplicate samples is shown. The assay combinations are useful in screening compounds that modulate TNF-α, IL-1 and IFN-γ signaling pathways, however, compounds must be evaluated separately in all three assay combinations to identify compounds that selectively modulate one or more of these pathways. In addition, compounds that selectively modulate combinatorial effects of these pathways cannot be distinguished.
# After 24 hours, cultures are washed and evaluated for the presence of the parameters ICAM-1 (1), VCAM-1 (2), E-selectin (3), IL-8 (4), CD31 (5), HLA-DR (6) and MIG (7) by cell-based ELISA performed as described above, and are reported as the OD at 450 nm. The mean +/−SD from triplicate samples are shown. * indicates p<0.05 comparing results obtained with the two separate conditions. HUVEC cultured with TNF-α for 24 hours express increased levels of cell surface ICAM-1, VCAM-1, and E-selectin as measured by cell-based ELISA. HUVEC cultured with IFN-γ for 24 hours express increased levels of ICAM-1, HLA-DR and MIG. HUVEC cultured in the presence of both TNF-α and IFN-γ for 24 hours produce a combined phenotype where HUVEC express increased levels of ICAM-1, VCAM-1, E-selectin, HLA-DR and MIG. This phenotype is more similar to the in vivo phenotype of endothelial cells in chronic inflammation and moreover reflects the stimulation of two different known pathways of interest in regulation of inflammatory processes. Concentrations of TNF-α and IFN-γ employed and length of exposure are standard according to the literature.
# Inclusion of additional biologically active factors further improves the usefulness of the screens provided in the present invention. […] After 24 hours, cultures are washed and evaluated for the presence of the parameters ICAM-1 (1), VCAM-1 (2), E-selectin (3), IL-8 (4), CD31 (5), HLA-DR (6) and MIG (7) by cell-based ELISA performed as described above, and are reported as the OD at 450 nm. The mean +/−SD from triplicate samples are shown. * indicates p<0.05 comparing results obtained with the two separate conditions. […]
# [2] = tested on: human umbilical vein endothelial cells (HUVEC); assay: Apoptosis assay panel (ceramide, TNF-α) with LDH release and cell-based ELISA; conditions: factor added to endothelial cell cultures, vs basal conditions
# Experimental: Other standard vectors or tranfection protocols can be substituted. […] In this example, the test genes are human Bcl-2 and Bcl-xL. […] DEAE dextran (conc lopg/ml) is added to facilitate vector transduction.
# [3] = HUVEC cultured with cytokine(s) 24 hours, vs basal medium
# [4] = HUVEC cultured with cytokine(s) 24 hours, vs basal medium, listed as TNF-alpha
substance,measurement,setting,value
TNF-α: proinflammatory cytokine added to HUVEC,IL-8 level,[1]; HUVEC after cytokine activation,to a lesser extent
same,ICAM-1 level,[1]; [3],increased
same,ICAM-1 level,[1]; [4],mainly up-regulate
same,E-selectin level,[1]; [3],increased
same,VCAM-1 level,[1]; [3],increased
same,VCAM-1 level,[1]; [4],mainly up-regulate
same,cell damage as release of cytoplasmic lactate dehydrogenase into the supernatant,[2],enhanced
